According to PubChem BioAssay AID492992 (Johns Hopkins Ion Channel Center, 2010):
Only a part is listed here, and it is no random draw. Activity calls are given as the source filed them.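 Rule for the calls: active = thallium signal inhibited by more than 5 SD of the compound-free buffer control wells, on both duplicate plates; inactive = the rest.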

Protein sequences, listed by entry. Tags and fused reporters are not part of them.
UniProt Q9NPC2, whole entry: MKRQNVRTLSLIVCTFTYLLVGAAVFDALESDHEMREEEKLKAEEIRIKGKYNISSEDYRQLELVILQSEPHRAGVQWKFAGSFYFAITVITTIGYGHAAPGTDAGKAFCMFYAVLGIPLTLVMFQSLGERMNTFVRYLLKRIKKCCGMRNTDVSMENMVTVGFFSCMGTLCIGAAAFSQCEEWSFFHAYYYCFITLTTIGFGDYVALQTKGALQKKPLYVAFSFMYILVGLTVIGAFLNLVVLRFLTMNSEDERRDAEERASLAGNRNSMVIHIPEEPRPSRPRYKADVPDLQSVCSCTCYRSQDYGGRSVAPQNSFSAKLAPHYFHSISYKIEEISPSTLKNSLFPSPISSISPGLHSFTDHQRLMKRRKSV

Each compound was assayed against Potassium channel subfamily K member 9 (Homo sapiens) (UniProt Q9NPC2) (assay: blockers of human TASK-3 (KCNK9) channel – HEK293 cells, thallium flux, duplicate, confirmation (AID 492992;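 note: 0% = assay buffer control wells without compound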)). Conditions: FluxOR thallium flux fluorescence, at 10 µM, hits give high values.

Question: Which inhibition does the source give for `COc1cccc(C(=O)N(c2cc(C)cc(C)c2)C2CCN(C(=O)OC(C)(C)C)CC2)c1` here?
Answer: active: 39.5%

Question: How did the inhibition turn out when `CC(C)(C)OC(=O)N1CCC(N(C(=O)c2ccccc2)c2ccc(Cl)cc2)CC1` was run?
Answer: active: 66%

Question: How did the inhibition turn out when `CC(C)(C)OC(=O)N1CCC(N(C(=O)c2ccccc2)c2ccc(F)cc2)CC1` was run?
Answer: active: 76%

Question: For `Cc1cc(C)cc(N(C(=O)c2ccccc2)C2CCN(C(=O)OC(C)(C)C)CC2)c1`, which inhibition is on record?
Answer: active: 58.5%
